Measured values reported in ChEMBL document CHEMBL1255197, “Surface plasmon resonance biosensor based fragment screening using acetylcholine binding protein identifies ligand efficiency hot spots (LE hot spots) by deconstruction of nicotinic acetylcholine receptor α7 ligands” (J Med Chem, 2010).

By UniProt entry, the sequences of proteins in these tests, tags left out.
UniProt P36544, whole entry: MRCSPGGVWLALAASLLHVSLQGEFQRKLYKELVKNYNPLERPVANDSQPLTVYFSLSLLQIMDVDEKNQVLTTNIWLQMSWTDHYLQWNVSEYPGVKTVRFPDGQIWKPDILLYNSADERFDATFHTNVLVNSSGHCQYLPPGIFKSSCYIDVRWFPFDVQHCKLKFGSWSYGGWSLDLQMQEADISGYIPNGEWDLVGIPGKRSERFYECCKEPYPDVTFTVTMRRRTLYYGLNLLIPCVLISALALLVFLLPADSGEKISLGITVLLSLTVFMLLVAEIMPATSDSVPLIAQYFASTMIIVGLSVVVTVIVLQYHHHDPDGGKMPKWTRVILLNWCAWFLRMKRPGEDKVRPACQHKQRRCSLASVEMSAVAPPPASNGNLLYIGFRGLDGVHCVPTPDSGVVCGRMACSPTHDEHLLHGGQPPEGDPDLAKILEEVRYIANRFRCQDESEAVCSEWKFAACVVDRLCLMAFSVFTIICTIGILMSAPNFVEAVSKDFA
UniProt P58154, whole entry: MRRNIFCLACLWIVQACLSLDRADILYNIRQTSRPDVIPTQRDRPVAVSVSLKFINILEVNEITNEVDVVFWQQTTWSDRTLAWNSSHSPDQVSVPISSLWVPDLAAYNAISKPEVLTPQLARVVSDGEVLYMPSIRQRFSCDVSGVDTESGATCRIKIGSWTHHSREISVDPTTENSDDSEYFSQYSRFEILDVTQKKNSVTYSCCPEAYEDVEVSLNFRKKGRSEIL

Columns and labels:
[1] = molecular target: Neuronal acetylcholine receptor subunit alpha-7 (Homo sapiens, UniProt P36544); test: biochemical
[2] = molecular target: Acetylcholine-binding protein (Lymnaea stagnalis, UniProt P58154)

Row | Structure (SMILES) | Ki [1] | Kd [2]
1 | O=C(Nc1ccccc1)O[C@H]1CN2CCC1CC2 | 1950 nM | 
2 | CN1CCC[C@H]1c1cccnc1 [NICOTINE] |  | 479 nM
